Here are results for one compound from patent publication US9901648B2, “Stabilization of biomolecules using sugar polymers” (THE REGENTS OF THE UNIVERSITY OF CALIFORNIA, priority 2012, dated 2018).

This series deals with RNase ONE ribonuclease. The note with it: 825 eq trehalose added; 37° C.

`OC[C@H]1O[C@H](O[C@H]2O[C@H](CO)[C@@H](O)[C@H](O)[C@H]2O)[C@H](O)[C@@H](O)[C@@H]1O` [trehalose]: the “protection of naked siRNA against RNase ONE by added trehalose” value was “protect siRNA better than having no additives”.
